Test results as given in ChEMBL document CHEMBL2311506, “Novel benzoxazole inhibitors of mPGES-1” (Bioorg Med Chem Lett, 2013).

Tested on: Canis familiaris
Assay: Clearance in dog at 0.25 mg/kg, iv
Type: ADME, organism-based, Canis lupus familiaris
Set-up: dose 0.25 mg/kg, route intravenous
Settings: in vivo

Question: With `O=C(N[C@H]1CCC[C@@H]1OCc1ccccc1)C1CCN(c2nc3cc(Cl)ccc3o2)CC1` as the compound, how does the CL read?
Answer: Its CL is 2.1 mL/mg/kg.
